Assay results: paper PMC4829425

Target: full-length VEGFR-2 with YFP or mCherry attached to the C-terminus via a GGS linker (human), P35968
Assay: FRET or BRET; QI-FRET between YFP- and mCherry-tagged copies in single plasma membrane-derived vesicles of co-transfected CHO cells, no ligand; monomer-dimer equilibrium model, dimer to monomers; two-dimensional concentrations (receptors per square micron)
Details: remark: other sources report otherwise

B1: full-length VEGFR-2 with YFP or mCherry attached to the C-terminus via a GGS linker (receptor)
chain: ASVGLPSVSLDLPRLSIQKDILTIKANTTLQITCRGQRDLDWLWPNNQSGSEQRVEVTECSDGLFCKTLTIPKVIGNDTGAYKCFYRETDLASVIYVYVQDYRSPFIASVSDQHGVVYITENKNKTVVIPCLGSISNLNVSLCARYPEKRFVPDGNRISWDSKKGFTIPSYMISYAGMVFCEAKINDESYQSIMYIVVVVGYRIYDVVLSPSHGIELSVGEKLVLNCTARTELNVGIDFNWEYPSSKHQHKKLVNRDLKTQSGSEMKKFLSTLTIDGVTRSDQGLYTCAASSGLMTKKNSTFVRVHEKPFVAFGSGMESLVEATVGERVRIPAKYLGYPPPEIKWYKNGIPLESNHTIKAGHVLTIMEVSERDTGNYTVILTNPISKEKQSHVVSLVVYVPPQIGEKSLISPVDSYQYGTTQTLTCTVYAIPPPHHIHWYWQLEEECANEPSQAVSVTNPYPCEEWRSVEDFQGGNKIEVNKNQFALIEGKNKTVSTLVIQAANVSALYKCEAVNKVGRGERVISFHVTRGPEITLQPDMQPTEQESVSLWCTADRSTFENLTWYKLGPQPLPIHVGELPTPVCKNLDTLWKLNATMFSNSTNDILIMELKNASLQDQGDYVCLAQDRKTKKRHCVVRQLTVLERVAPTITGNLENQTTSIGESIEVSCTASGNPPPQIMWFKDNETLVEDSGIVLKDGNRNLTIRRVRKEDEGLYTCQACSVLGCAKVEAFFIIEGAQEKTNLEIIILVGTAVIAMFFWLLLVII[about 550 residues not listed]
For B1, the percent dimer at 10 to 100 receptors per square micron was 30 to 60%.
